Earlier results as cited in paper PMC8247773, “Benzohydrazide and Phenylacetamide Scaffolds: New Putative ParE Inhibitors” (Frontiers in Bioengineering and Biotechnology, 2021).

Tested on: Bacillus subtilis (NCIM 2545)
Conditions: ref Yele et al., 2020, 2021; cited from earlier work

COc1ccc(NNC(=O)CSc2nc3ccccc3s2)cc1
Minimum inhibitory concentration (MIC) B. s: 1.96
